Antibody variant affinities, Ab-95 light chain, assay 2

Target peptide (SARS-CoV-2 spike, HR2 region): PDVDLGDISGINAS

Parent: Ab-95, a human scFv built as VH, a 15-residue (Gly4Ser)3 linker, VL. Only the CDRs of the light chain vary.
VH: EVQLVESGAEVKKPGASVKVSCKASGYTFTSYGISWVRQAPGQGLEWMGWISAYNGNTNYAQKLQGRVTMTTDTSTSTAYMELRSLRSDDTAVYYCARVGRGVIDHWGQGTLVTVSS
VL: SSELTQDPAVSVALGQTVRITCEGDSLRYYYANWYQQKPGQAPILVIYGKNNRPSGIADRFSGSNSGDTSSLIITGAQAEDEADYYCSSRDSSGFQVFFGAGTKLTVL

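The starting antibody came from a phage panning campaign against this peptide. In library AAYL52, one, two or three CDR residues were substituted; doubles and triples were drawn at random. AlphaSeq pools MATa yeast showing the antibodies with MATalpha yeast showing the peptide. Binding brings cells together so that they mate, and sequencing counts the barcode pairs among the diploids. A regression on co-assayed BCL2-family reference pairs converts the normalised counts of each replicate to an apparent Kd. Each pool was mated in three replicate cultures.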

The parent's light chain CDRs are EGDSLRYYYAN, GKNNRPS, SSRDSSGFQVF; each variant's own CDRs replace them letter for letter.
Values are log10 of the apparent Kd in nM; lower means stronger binding.
Averages over replicates are reported, and they cover detected replicates only.
An entry "n.d." has no value in the source: the pair was not observed among the diploids in that replicate. This suggests poor binding but is not conclusive.

| CDR-L1 | CDR-L2 | CDR-L3 | log10 Kd (nM) by replicate | log10 Kd (nM), mean | control signals |
|---|---|---|---|---|---|
| EGDSLRYYYAN | GKNNRPS | SSRWSSGFQVF | n.d. / 3.50 / 3.28 | 3.39 | 1 of 9 (3.06) |
| EGDSIRYYYKN | GKNNRPS | SSRDSSGFWVF | 3.54 / n.d. / n.d. | 3.54 | 6 of 9 (4.32) |
| EGDSLRYFYAN | GKNNFPS | SSKDSSGFQVF | 4.02 / n.d. / n.d. | 4.02 | 1 of 9 (3.50) |
| AGDTLRYRYAN | GKNNRPS | SSRDSSGFQVF | 1.78 / 1.58 / 1.88 | 1.75 | 1 of 9 (2.61) |
| EGDSLKYYYAR | GKNNRPS | SSRDSSGFQVF | 3.10 / 3.14 / 4.28 | 3.50 | 3 of 9 (4.09) |
| EGDSLRYYYAS | GKNNQPS | SSRDSSPFQVF | 5.26 / 4.12 / 3.55 | 4.31 | 2 of 9 (4.77) |
| QGDSLRYYYAN | GDNNRPS | SSRDFSGFQVF | 2.18 / 1.93 / 1.80 | 1.97 | 6 of 9 (3.86) |
| EGKSLRYYYAN | GKNNRPS | SSRDSSGFQVV | 2.97 / 3.58 / 3.35 | 3.30 | 5 of 9 (3.74) |
| EGDSLRYYYAN | GKNGRES | SSRDSSGFFVF | 3.82 / 5.17 / n.d. | 4.49 | 1 of 9 (4.21) |
| WGDHLRYYYAN | GKNNRPS | SSRDRSGFQVF | 2.78 / 3.49 / 2.29 | 2.85 | 1 of 9 (2.92) |
| EHDSLRYYYPN | GKNNRPS | SSRDSSGFQVS | 2.14 / 2.29 / 1.63 | 2.02 | 3 of 9 (3.46) |
| KGDSLRWYYAN | GKNNRPS | SSRDSSGFQVF | 2.49 / 2.52 / 1.82 | 2.28 | 4 of 9 (3.76) |
| EGDNLRYYYAN | GKNNRPS | SSRYSSGYQVF | 4.47 / n.d. / n.d. | 4.47 | 3 of 9 (3.45) |
| EGPSLRYYYAN | GKNNRPS | SNRDESGFQVF | 1.81 / 1.98 / 1.43 | 1.74 | 0 of 9 |
| EGSDLRYYYAN | GKNNRPS | SSRDSSSFQVF | 3.20 / 3.58 / 3.05 | 3.28 | 3 of 9 (3.82) |
| EGDSLRYYYAN | VTNNRPS | SSLDSSGFQVF | n.d. / n.d. / 3.76 | 3.76 | 2 of 9 (3.78) |
| EGDSVRYYYAN | NKNNRPS | SSRDSSGIQVF | 4.60 / n.d. / n.d. | 4.60 | 1 of 9 (5.32) |
| EGDSCDYKYAN | GKNNRPS | SSRDSSGFQVF | 3.48 / 3.52 / n.d. | 3.50 | 3 of 9 (3.68) |
| EMDSLRYYYAN | GKNNRPS | SSRISSGFQGF | 3.25 / 3.68 / 4.01 | 3.65 | 4 of 9 (3.60) |
| EGDSLRYYYGK | GKNNMPS | SSRDSSGFQVF | n.d. / n.d. / 4.56 | 4.56 | 3 of 9 (4.09) |
| EGDSLRYTWAN | GKNNRPS | SCRDSSGFQVF | 1.44 / 1.35 / 0.92 | 1.23 | 3 of 9 (4.38) |
| EGYSLRYYYAN | GKNTFPS | SSRDSSGFQVF | n.d. / 4.07 / n.d. | 4.07 | 0 of 9 |
| EGDSLRYYYAI | GKNNRPS | SSRDKPGFQVF | 3.19 / n.d. / 2.70 | 2.94 | 1 of 9 (3.25) |
| EGDSLRYQYAN | GKNNRPS | SWYDSSGFQVF | n.d. / n.d. / 3.93 | 3.93 | 3 of 9 (4.12) |
| EGDSLRYYYAN | GKWNRPS | VSRDSSGFQVF | 3.74 / n.d. / n.d. | 3.74 | 3 of 9 (4.42) |
| EGDSLRYWYAN | GKNNRPS | SSRDSSGFQVF | 2.34 / 2.50 / 2.01 | 2.28 | 1 of 9 (3.39) |
| EGDSLRYYYAN | GKNNRPQ | SSRDQAGFQVF | 2.59 / 2.15 / 1.82 | 2.19 | 2 of 9 (4.06) |
| EGDSDRYYYAN | GKNNRSS | SSRDSSGFVVF | 5.60 / 3.69 / 4.29 | 4.53 | 2 of 9 (4.44) |
| EGDSLRYYYAN | MWVNRPS | SSRDSSGFQVF | 4.28 / 5.35 / n.d. | 4.82 | 4 of 9 (3.86) |
| EGDSLKYYYAN | GKKNRPS | SDRDSSGFQVF | 3.60 / n.d. / n.d. | 3.60 | 4 of 9 (3.86) |
| EGDSLRYYYAN | NKNDRPS | MSRDSSGFQVF | 1.61 / 1.84 / 1.74 | 1.73 | 3 of 9 (3.67) |
| EGDSLRYYYAN | GDNNRPS | SSRDDSEFQVF | n.d. / n.d. / n.d. | n.d. | 1 of 9 (2.77) |
| ECDSLRYYYAN | GPNNRPS | SSRDSSGFMVF | 4.21 / 4.22 / n.d. | 4.22 | 1 of 9 (3.26) |
| EGDSLRYYYAN | DKNNRPS | SSDDSSGFQVF | n.d. / 2.99 / 3.02 | 3.01 | 3 of 9 (4.30) |
| EGDSLRYYYAN | QPNNRPS | SSRDSSEFQVF | 5.31 / n.d. / n.d. | 5.31 | 5 of 9 (3.88) |

Repeated from above, the 3 best binders with a signal in all replicates:

{"CDR-L1": "EGDSLRYTWAN", "CDR-L2": "GKNNRPS", "CDR-L3": "SCRDSSGFQVF", "log10 Kd (nM) by replicate": "1.44 / 1.35 / 0.92", "log10 Kd (nM), mean": "1.23", "control signals": "3 of 9 (4.38)"}
{"CDR-L1": "EGDSLRYYYAN", "CDR-L2": "NKNDRPS", "CDR-L3": "MSRDSSGFQVF", "log10 Kd (nM) by replicate": "1.61 / 1.84 / 1.74", "log10 Kd (nM), mean": "1.73", "control signals": "3 of 9 (3.67)"}
{"CDR-L1": "EGPSLRYYYAN", "CDR-L2": "GKNNRPS", "CDR-L3": "SNRDESGFQVF", "log10 Kd (nM) by replicate": "1.81 / 1.98 / 1.43", "log10 Kd (nM), mean": "1.74", "control signals": "0 of 9"}

In this assay the parent's reference entry averaged 2.31; its copy inside this library read 2.25.
Nonspecific signal, from three strains lacking the peptide, appeared in 28% of pairings of library AAYL52, centred on 3.91 (5% of these signals below 2.90); values are not corrected for it. The control count says in how many pairings with the empty strains this scFv gave a signal, with their mean in brackets.

Source: Engelhart et al. 2022 (doi:10.1038/s41597-022-01779-4), MIT Lincoln Laboratory and A-Alpha Bio; data file from the FLAb repository.